# Ab-91 heavy chain CDR variants: yeast mating affinities

The target is the same throughout: PDVDLGDISGINAS, from the HR2 region of SARS-CoV-2 spike.

Parent: Ab-91, a human scFv built as VL, a 15-residue (Gly4Ser)3 linker, VH. Only the CDRs of the heavy chain vary.
VL: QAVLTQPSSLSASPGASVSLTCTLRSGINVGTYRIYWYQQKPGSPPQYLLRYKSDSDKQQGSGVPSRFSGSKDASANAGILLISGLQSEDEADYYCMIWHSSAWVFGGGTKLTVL
VH: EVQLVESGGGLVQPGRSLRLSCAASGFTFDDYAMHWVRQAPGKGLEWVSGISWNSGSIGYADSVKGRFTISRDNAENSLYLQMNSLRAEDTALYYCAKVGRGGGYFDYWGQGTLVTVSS

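Library AAYL51 holds single substitutions and randomly drawn double and triple substitutions in the CDRs. AlphaSeq pools MATa yeast showing the antibodies with MATalpha yeast showing the peptide. After mating in shaken culture at 30 °C for 16 h, diploids were selected and their barcode pairs sequenced. Read counts were normalised to the haploid input and turned into Kd by a linear fit to BCL2-family pairs of known affinity, for each replicate. Mating was done three times.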

Changes read parent residue, position, new residue, counted from the first residue of the VH shown.
Scale: log10 of Kd in nM, estimated from mating counts; low values are strong binders.
Replicates are averaged; those with no signal do not enter the mean.
"ND" marks a missing value. The strain was present, yet no cells mated with the target were sequenced in that replicate, which points to weak or no binding.
Background: pairings of library AAYL51 with three empty control strains gave a value in 21% of cases (median 4.54, 5th percentile 3.26). Values in that range, when seen in few replicates, are hard to tell from nonspecific mating. For each scFv, signals with the empty controls are counted beside the result, with their mean in brackets.
For reference, the parent read 1.86 as the reference entry and 0.88 as a member of this library.

changes,log10 Kd (nM) by replicate,mean log10 Kd (nM),empty controls
H35A/K65Q/V99C,ND / ND / ND,ND,1 of 9 (3.15)
D31T/V64R,5.49 / 5.44 / 5.25,5.39,7 of 9 (4.67)
F27E/Y32M/I51D,5.13 / 5.66 / ND,5.40,2 of 9 (5.19)
A33H/N54R/D107R,ND / ND / ND,ND,2 of 9 (3.38)
A33E/S57V/A61G,ND / ND / ND,ND,0 of 9
F29Q/A33L/H35P,2.85 / ND / ND,2.85,0 of 9
G50E/G59K/G104V,5.11 / 5.58 / 4.65,5.12,3 of 9 (5.24)
H35I,ND / ND / 4.73,4.73,4 of 9 (3.78)
D30M/A61M/S63D,ND / ND / ND,ND,1 of 9 (4.18)
H35C/V99Q/D107T,4.98 / ND / ND,4.98,0 of 9
F27H/M34H,ND / ND / ND,ND,0 of 9
F29N/D62A/G103Q,ND / 5.05 / ND,5.05,1 of 9 (3.97)
D30L/M34P/D107G,ND / ND / ND,ND,2 of 9 (5.15)
T28R/S52N/V64L,2.08 / 2.33 / 1.51,1.97,0 of 9
T28Y/F29Y/S63N,2.69 / 3.02 / 2.12,2.61,2 of 9 (4.63)
S57H/S63K/G100Y,5.13 / 3.48 / 3.81,4.14,0 of 9
F27Q/A61T/G100N,ND / ND / ND,ND,0 of 9
G50A/A61G/D107M,4.44 / ND / 3.19,3.82,2 of 9 (3.47)
G26R/G104Q/Y105M,ND / ND / ND,ND,0 of 9
M34F/G59N/Y105K,4.40 / ND / ND,4.40,1 of 9 (3.52)
G26I/D30K/V99A,ND / ND / ND,ND,1 of 9 (4.57)
D30L/K65W,3.37 / 3.88 / 4.59,3.95,0 of 9
G26P/Y60M/R101Q,ND / ND / ND,ND,0 of 9
I58Q/V64Q/D107C,ND / 3.81 / ND,3.81,0 of 9
T28G/W53N/S57D,2.45 / 2.17 / ND,2.31,0 of 9
N54Y/F106Q/Y108V,4.51 / ND / ND,4.51,2 of 9 (4.82)
G26H/H35S/G56I,5.03 / ND / ND,5.03,0 of 9
M34K/W53I/G56P,4.14 / ND / ND,4.14,0 of 9
T28Q/I51W/Y105H,ND / ND / ND,ND,0 of 9
A33T/S52W/G59Y,5.20 / ND / ND,5.20,2 of 9 (4.11)
I51R/G56C/K65Q,ND / ND / ND,ND,2 of 9 (5.21)
G26T/G50Y,ND / ND / ND,ND,1 of 9 (3.25)
H35D/I51S/Y105F,5.05 / ND / ND,5.05,1 of 9 (2.76)
S55N/Y60W/R101P,ND / ND / ND,ND,0 of 9
T28I/G104D,5.66 / 5.99 / ND,5.83,6 of 9 (5.60)
G50H/S55F/G104Y,ND / ND / ND,ND,0 of 9

The first 2 entries again:

| changes | log10 Kd (nM) by replicate | mean log10 Kd (nM) | empty controls |
|---|---|---|---|
| H35A/K65Q/V99C | ND / ND / ND | ND | 1 of 9 (3.15) |
| D31T/V64R | 5.49 / 5.44 / 5.25 | 5.39 | 7 of 9 (4.67) |

Values reported by Engelhart et al. 2022, doi:10.1038/s41597-022-01779-4 (FLAb copy).